# Measured affinities in a library of Ab-14 heavy chain variants

Data: MIT Lincoln Laboratory AlphaSeq set, Engelhart et al. 2022, doi:10.1038/s41597-022-01779-4, as distributed in FLAb.

All variants were tested on one target, the spike HR2 peptide PDVDLGDISGINAS (SARS-CoV-2).

Parent scFv Ab-14: VH joined to VL by a (GGGGS)3 linker. Changes lie in the heavy chain CDRs alone.
VH: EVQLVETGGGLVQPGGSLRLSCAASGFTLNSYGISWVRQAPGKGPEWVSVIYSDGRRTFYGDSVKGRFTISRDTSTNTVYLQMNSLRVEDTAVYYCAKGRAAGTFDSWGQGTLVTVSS
VL: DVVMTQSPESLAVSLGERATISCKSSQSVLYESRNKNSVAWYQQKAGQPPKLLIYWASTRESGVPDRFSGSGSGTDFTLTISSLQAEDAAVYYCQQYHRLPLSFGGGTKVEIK

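Phage display of a naive human antibody library on the peptide gave the parent. AAYL49 was designed without a model: most single CDR substitutions and a random sample of double and triple ones. Affinity was read by AlphaSeq, a pooled yeast mating assay with surface-displayed partners. The frequency of each diploid, read from paired DNA barcodes, reflects how well the two displayed proteins bind. Scores were corrected for input abundance and mapped to Kd with protein pairs of known affinity run in the same pool. The assay was run in three technical replicates.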

Variants are written as CDR1, CDR2 and CDR3 of the heavy chain (limits as in the source). Parent: GFTLNSYGIS, VIYSDGRRTFYGDSVK, GRAAGTFDS.
Numbers give log10(Kd / nM), so 0 is 1 nM and 3 is 1 µM. Smaller is tighter.
"ND" means that the variant was in the library but no mating with the target was seen in that replicate; the authors take this as a sign of poor binding, and no number exists.

| # | CDR-H1 | CDR-H2 | CDR-H3 | replicates, log10 nM | empty controls |
|---|---|---|---|---|---|
| 1 | GTTLNSYGTS | VIYSDGRRTFYGDSVK | GRAAGRFDS | ND / ND / ND | 0 of 9 |
| 2 | GFTLNWYGIS | VIYSDGRRTFYGDSVK | GQAAKTFDS | 4.35 / ND / 3.39 | 0 of 9 |
| 3 | GFTLNSYGIH | VIYSDMRRTFYGDSVK | GRAAGTFDV | ND / ND / ND | 2 of 9 (3.17) |
| 4 | GFTLNSYGII | VIYSDGRRTFYVDSVK | GRAAGTFDS | ND / 4.75 / 3.73 | 4 of 9 (3.41) |
| 5 | GFTQNSYGIS | VIYSDGRRTAYGDSVK | GRAAGTFDL | 1.59 / 1.75 / 1.97 | 0 of 9 |
| 6 | GFTLNSYGIS | VIYSDGPRTFYGDSVK | GRAAGTRPS | ND / ND / ND | 0 of 9 |
| 7 | TFTLNFYGIS | VIYSDGRRTFKGDSVK | GRAAGTFDS | 5.22 / 5.13 / 4.77 | 6 of 9 (4.39) |
| 8 | GFTLNSYGII | VIYSDGRRFFYGDSVK | GRAAGTFDS | ND / ND / ND | 0 of 9 |
| 9 | GFTLNQYGIS | VIYSDGRRTFYGDSVK | GRAAGPFDS | ND / ND / ND | 2 of 9 (4.45) |
| 10 | GFTLNSYGMS | VIDSDGRRTFYGDSVK | GRAAATFDS | ND / 5.10 / 4.46 | 3 of 9 (4.08) |
| 11 | GFTLNSYGIS | VIYSDGRRTFPGDSVK | GRYRGTFDS | ND / ND / ND | 0 of 9 |
| 12 | GFTLNSYGIS | VCYSDGHRTFYGDSVT | GRAAGTFDS | ND / 3.32 / 4.83 | 3 of 9 (3.87) |
| 13 | GFTLESYGIS | VIYSDGRRTFYGDSVK | GRAPGTFDV | 0.82 / 1.04 / 0.70 | 1 of 9 (4.10) |
| 14 | GFTLISFGIS | VIYSDGRRTFYGDSVK | GRAAGSFDS | 5.63 / 3.85 / 4.32 | 7 of 9 (4.08) |
| 15 | GFTLIIYGIS | VIYSLGRRTFYGDSVK | GRAAGTFDS | ND / 3.09 / ND | 2 of 9 (3.21) |
| 16 | GFTFVSMGIS | VIYSDGRRTFYGDSVK | GRAAGTFDS | ND / ND / 3.30 | 1 of 9 (3.17) |
| 17 | GFALNSYGIS | VIYSQGRRTFYGDSVK | GRAAGWFDS | 3.76 / 5.25 / ND | 5 of 9 (4.51) |
| 18 | WFELNRYGIS | VIYSDGRRTFYGDSVK | GRAAGTFDS | 3.46 / 2.73 / 3.61 | 3 of 9 (4.02) |
| 19 | GFTLNSYNIS | VIYSDGRRTFYGDTVK | GRSAGTFDS | ND / ND / 4.97 | 1 of 9 (2.00) |
| 20 | GFQLNSYGIS | VIYSDGRKTFYGDSVK | GRAAGTFDY | ND / 2.89 / 2.65 | 1 of 9 (3.97) |
| 21 | GATTNSYGIS | NIYSDGRRTFYGDSVK | GRAAGTFDS | 3.26 / ND / ND | 0 of 9 |
| 22 | GFTYNSYGIQ | VIYSDGRRTFYGDSCK | GRAAGTFDS | ND / ND / 4.19 | 0 of 9 |
| 23 | GFTLNSYDIS | VIYSDGKRTFYGDSVK | GRAAGTFDS | ND / ND / ND | 3 of 9 (2.61) |
| 24 | GFTLNSYGIS | VIYSDGRRTFYGDSYK | GRQPGTFDS | 3.81 / ND / ND | 0 of 9 |
| 25 | GFTLNSYGIS | VIYSDGRRTFAGDSVC | GRAAGNFDS | ND / ND / ND | 1 of 9 (3.56) |
| 26 | GFTLNSYGGS | VIYSDGRVTFYGDSVK | GRAAGTKDS | 6.62 / ND / 4.61 | 6 of 9 (4.60) |
| 27 | GFTLNSYGIS | RIYSDGMRTFYGDSVK | GRALGTFDS | 5.13 / ND / ND | 1 of 9 (4.17) |
| 28 | GFTLNSYGIK | HIYSDGRRTFYDDSVK | GRAAGTFDS | ND / ND / ND | 0 of 9 |
| 29 | GFTKNSYGIS | VIGSDGERTFYGDSVK | GRAAGTFDS | ND / 3.79 / ND | 2 of 9 (4.52) |
| 30 | GCTLNSYGIS | VIYSDGRQTFYGDSVK | WRAAGTFDS | 4.28 / ND / ND | 3 of 9 (4.17) |
| 31 | GFILNSDGIS | VIYSDGRRTFYGDSVK | GRAPGTFDS | ND / ND / ND | 2 of 9 (5.01) |
| 32 | DFTLNSYKTS | VIYSDGRRTFYGDSVK | GRAAGTFDS | 4.97 / ND / 4.02 | 2 of 9 (4.35) |
| 33 | KFTLNSYGIS | VIYSDRRRTFYGDSVI | GRAAGTFDS | ND / ND / 4.10 | 1 of 9 (3.16) |

As a blank, each scFv also met three strains without target: over library AAYL49, 15% of these pairings were detected, typically at 4.06 and seldom below 2.83. The control count says in how many pairings with the empty strains this scFv gave a signal, with their mean in brackets.
In this assay the parent's reference entry averaged 0.65; its copy inside this library read 4.11 (one replicate of three).